Laboratory results taken from US20250345446A1 (Draupnir Bio ApS, priority 2022, published 2025).

Target: Sortilin (full length sortilin receptor expressed on HEK293 cells) (Homo sapiens (Human)) (UniProt Q99523)

## Adalimumab-… (SEQ ID NO.: 192) (antibody)
  EC50 (read off the curve) [cont. C]: 40 nM

## Adalimumab-…-OH (SEQ ID NO: 194) (antibody)
  EC50 (read off the curve) [cont. C]: 30 nM
